Values joined by “and” are separate entries in the source; they are usually repeats but may differ in a detail not shown here. Identical values can stand only once.
Columns and labels:
S. pyogenes = experiment: Agarose dilution assay (MIC); format: cell-based; conditions: S. pyogenes SPY003
[1] = Reversed phase HPLC analysis of peptide analogue formulations; format: physicochemical; conditions: 400 μg/mL in formulation D
Protocol: Reversed-phase HPLC, which provides an analytical method for peptide quantification, is used to examine peptides in two different formulations. A 400 μg/mL solution of MBI 11CN prepared in formulations C1 and D is analyzed by using a stepwise gradient to resolve free peptide from other species. Standard chromatographic conditions are used as follows:
Solvent A: 0.1% trifluoroacetic acid (TFA) in water
Solvent B: 0.1% TFA/95% acetonitrile in water
Media: POROS® R2-20 (polystyrene divinylbenzene)

[2] = Circular dichroism spectroscopy; format: physicochemical
sheep RBC = experiment: Red blood cell (RBC) lysis assay, standardized conditions (1% RBC); format: cell-based; conditions: 1% (v/v) sheep RBC, 500 μg/ml peptide, pH 6-7
[3] = Peptide levels in blood in vivo after intravenous injection; parameters: species or system CD1 ICRBR strain mice
Protocol: Peptide levels in plasma in vivo are measured after iv or ip administration of 80-100% of the maximum tolerated dose of peptide analogue in either formulation C1 or D. MBI 11CN in formulation C1 is injected intravenously into the tail vein of CD1 ICRBR strain mice. At various times post-injection, mice are anesthetized and blood is drawn by cardiac puncture. Blood from individual mice is centrifuged to separate plasma from cells. Plasma is then analyzed by reversed phase HPLC column. […] Each data point represents the average blood level from two mice. In this assay, the detection limit is approximately 1 μg/ml, less than 3% of the dose administered
The earliest time point at which peptide can be measured is three minutes following injection, thus, the maximum observed concentration (in μg/ml) is extrapolated back to time zero (FIG. 15). The projected initial concentration corresponds well to the expected concentration of between 35 and 45 μg/ml.
(§1) At set times post-injection, each group of animals are anesthetized, blood is drawn, and plasma obtained by centrifugation. The amount of peptide or agent in the plasma supernatant is analyzed as for the in vitro determination.

[4] = Peptide levels in blood in vivo after intraperitoneal injection; parameters: species or system CD1 ICRBR strain mice; conditions: ip 40 mg/kg, formulation C1
Protocol: In addition, MBI 11CN is also administered to CD1 ICRBR strain mice by a single ip injection at an efficacious dose level of 40 mg/kg. Peptide is administered in both formulations C1 and D to determine if peptide complexation has any effect on blood levels. At various times post injection, mice are anesthetized and blood is drawn by cardiac puncture. Blood is collected and analyzed as for the iv injection.
In contrast, peptide in formulation D is present at a level above 2 μg/ml for approximately two hours. Therefore, formulation affects entry into, and maintenance of levels of peptide in the blood.
as §1

[5] = Single dose toxicity, intraperitoneal injection, formulations; format: in vivo, outbred ICR mice
Protocol: The single dose toxicity of a cationic peptide and antibiotic agent combination is examined in outbred ICR mice. Intraperitoneal injection of the combination in isotonic saline is carried out at increasing dose levels. The survival of the animals is monitored for 7 days. The number of animals surviving at each dose level is used to determine the maximum tolerated dose (MTD). In addition, the MTD can be determined after administration of the peptide and agent by different routes, at different time points, and in different formulations.
The single dose toxicity of MBI 10CN and MBI 11CN is examined in outbred ICR mice (Table 32).
The single dose toxicity of MBI 10CN and MBI 11CN in different formulations is also examined in outbred ICR mice (Table 36). Intraperitoneal injection (groups of 2 mice) of MBI 10CN in formulation D show no toxicity up to 29 mg/kg and under the same conditions MBI 11CN show no toxicity up to 40 mg/kg.

[6] = Acute single dose toxicity, intravenous route, isotonic saline; format: in vivo; conditions: Swiss CD1 mice, 5 days
Protocol: In vivo toxicity of a peptide is measured through administration of a range of doses to animals, typically mice, by a route defined in part by the intended clinical use. […]. Indolicidin analogues less toxic than indolicidin are preferred.
(§2) The acute, single dose toxicity of various indolicidin analogues is tested in Swiss CD1 mice using various routes of administration. In order to determine the inherent toxicities of the peptide analogues in the absence of any formulation/delivery vehicle effects, the peptides are all administered in isotonic saline with the final pH between 6 and 7.
Intravenous route. […]. […]

[7] = Single and multiple dose toxicity, intravenous injection, formulations; format: in vivo, outbred ICR mice
[8] = Acute single dose toxicity, subcutaneous route; format: in vivo, Swiss CD1 mice
Protocol: as §2
Subcutaneous route. The toxicity of MBI 11CN is also determined after subcutaneous (SC) administration. […]. After administration, the mice are observed for a period of 5 days. None of the animals died at any of the dose levels within the 5 day observation period. […]. […] These symptoms are reversible, disappearing in all mice by the second day of observations.

[9] = Toxicity of APO-modified and unmodified MBI 11CN, single iv dose; format: in vivo, Swiss CD-1 mice
[10] = iv, formulation D, 2 injections of 4.1 mg/kg, 10 min interval
[11] = 3 mg/kg single iv dose, 0.9% saline
[12] = 5 mg/kg single iv dose, 0.9% saline
[13] = 8 mg/kg single iv dose, 0.9% saline
[14] = 10 mg/kg single iv dose, 0.9% saline
[15] = 13 mg/kg single iv dose, 0.9% saline
[16] = single iv dose, 0.9% saline, Swiss CD-1 mice

ILKKWPWWPWRRK [MBI 11CN]
MIC (S. pyogenes): 8 µg/mL
free peptide peak [1]: < 10%
min λ, Phosphate buffer ([2]; CD spectrum, 10 mM sodium phosphate buffer, pH 7.2): 200 nm
min λ, TFE ([2]; CD spectrum, phosphate buffer and 40% (v/v) trifluoroethanol): 200 nm
Conformation in buffer ([2]; CD, 10 mM sodium phosphate buffer, pH 7.2): Unordered
Conformation in TFE ([2]; CD, phosphate buffer and 40% (v/v) trifluoroethanol): Unordered
% lysis at 500 μg/ml (sheep RBC): 9%
half life of free circulating peptide ([3]; formulation C1, mice): 2.1 min
free circulating peptide in blood ([3]; formulation D, mice): not detectable
blood level after 60 minutes [4]: non-detectable levels
MTD ([5]; Intraperitoneal injection, single dose, outbred ICR mice (Table 32)): >40 mg/kg
MTD ([5]; ip, formulation D, ICR mice): 40 mg/kg and >40 mg/kg
dose showing no toxicity ([5]; ip, formulation D, groups of 2 mice): up to 40 mg/kg
LD50 [6]: 5.8 mg/kg
LD90-100 [6]: 8.0 mg/kg
MTD [6]: <4 mg/kg
MTD ([7]; Intravenous injection, single dose, outbred ICR mice (Table 32)): 6.1 mg/kg
MTD ([7]; iv, formulation C (lyophilized)): 3.0 mg/kg
toxicity ([7]; iv, formulation C (lyophilized), 6.1 mg/kg): 10%
toxicity ([7]; iv, formulation C (lyophilized), 12 mg/kg): 100%
MTD ([7]; iv, formulation C (lyophilized), ICR mice): 3.0 mg/kg
Result (mortality) [7, 10]: 66%
Result (toxicity) [7, 10]: 66% toxicity
toxicity ([7]; iv, non-lyophilized solution, formulation C1, 3.0 mg/kg): 100%
toxicity (mortality) ([7]; iv, two injections of 4.1 mg/kg with a 10 minute interval): 60%
LD50 [8]: greater than 128 mg/kg
LD90-100 [8]: greater than 128 mg/kg
MTD [8]: greater than 128 mg/kg
% Dead [9, 11]: 0%
Cumulative No. Dead [9, 11]: 0
Cumulative No. Surviving [9, 11]: 12
% Dead [9, 12]: 0%
Cumulative No. Dead [9, 12]: 0
Cumulative No. Surviving [9, 12]: 6
% Dead [9, 13]: 100%
Cumulative No. Dead [9, 13]: 6
Cumulative No. Surviving [9, 13]: 0
% Dead [9, 14]: 100%
Cumulative No. Dead [9, 14]: 12
Cumulative No. Surviving [9, 14]: 0
% Dead [9, 15]: 100%
Cumulative No. Dead [9, 15]: 18
Cumulative No. Surviving [9, 15]: 0
LD50 ([9]; single iv dose in 0.9% saline): 7 mg/kg
dose with all subjects dying ([9]; single iv dose in 0.9% saline): 8 mg/mL
highest dose giving 100% survival ([9]; single iv dose in 0.9% saline): 5 mg/kg
LD50 [9, 16]: 7 mg/kg
LD90-100 [9, 16]: 8 mg/kg
MTD [9, 16]: 5 mg/kg
